Earlier results on one compound are cited in patent publication US6057161A (priority 1997, dated 2000).

As to `CC(=O)Oc1ccc2c3c1O[C@H]1[C@@H](OC(C)=O)C=C[C@H]4[C@@H](C2)N(C)CC[C@@]341`, the “time found in the urine after administration of heroin” value is recorded as “up to 40 hours”.
